# Laboratory results taken from patent US5278146A, “CRF analogs” (The Salk Institute for Biological Studies, priority 1992, dated 1994).
# Tests used:
# [1] = In vivo testing (procedure of C. Rivier et al., Science 218, 377): duration of potency and blood pressure; conditions: administered peripherally (where stated)
# [2] = system: cultured rat pituitary cells; test: Secretion of ACTH and β-endorphin by cultured rat pituitary cells; format: cell-based; conditions: general procedure of Example III
# Experimental: The synthetic peptide [D-Glu^20 ]-oCRF is examined for its effects on the secretion of ACTH and β-endorphin vitro and was also in vivo. The potency of synthetic [D-Glu^20 ]-oCRF to stimulate the secretion of ACTH and β-endorphin by cultured rat pituitary cells is measured using the procedure as generally set forth in Endocrinology, 91, 562 (1972) and compared against synthetic oCRF.
SMILES,Lowering of blood pressure [1],Stimulation of the secretion of ACTH and β-END-LI [2]
"CCCC[C@H](NC(=O)[C@H](CC(C)C)NC(=O)[C@H](CCCCN)NC(=O)[C@H](CCCNC(=N)N)NC(=O)[C@H](CC(N)=O)NC(=O)[C@H](CO)NC(=O)[C@H](Cc1c[nH]cn1)NC(=O)[C@H](C)NC(=O)[C@H](CCC(N)=O)NC(=O)[C@H](CCC(N)=O)NC(=O)[C@H](C)NC(=O)[C@H](CC(C)C)NC(=O)[C@H](CCC(N)=O)NC(=O)[C@H](CC(=O)O)NC(=O)[C@H](C)NC(=O)[C@H](CCCCN)NC(=O)[C@@H](NC(=O)[C@H](CCCC)NC(=O)[C@H](CCC(=O)O)NC(=O)[C@H](CC(C)C)NC(=O)[C@@H](NC(=O)[C@H](CCC(=O)O)NC(=O)[C@H](CCCNC(=N)N)NC(=O)[C@H](CC(C)C)NC(=O)[C@H](CC(C)C)NC(=O)[C@H](Cc1c[nH]cn1)NC(=O)[C@@H](Cc1ccccc1)NC(=O)[C@@H](NC(=O)[C@H](CC(C)C)NC(=O)[C@H](CC(=O)O)NC(=O)[C@H](CC(C)C)NC(=O)[C@H](CO)NC(=O)[C@@H](NC(=O)[C@@H]1CCCN1C(=O)[C@@H]1CCCN1C(=O)[C@H](CCC(=O)O)NC(=O)[C@H](CCC(N)=O)NC(=O)[C@@H](N)CO)[C@@H](C)CC)[C@@H](C)O)C(C)C)[C@@H](C)O)C(=O)N[C@@H](CC(=O)O)C(=O)N[C@H](C(=O)N[C@@H](C)C(N)=O)[C@@H](C)CC [[D-Phe^12, Nle^21,38]-oCRF]",very significant lowering of blood pressure,–
"CCCC[C@H](NC(=O)[C@H](CCC(=O)O)NC(=O)[C@H](CC(C)C)NC(=O)[C@@H](NC(=O)[C@H](CCC(=O)O)NC(=O)[C@H](CCCNC(=N)N)NC(=O)[C@H](CC(C)C)NC(=O)[C@H](CC(C)C)NC(=O)[C@H](Cc1c[nH]cn1)NC(=O)[C@@H](Cc1ccccc1)NC(=O)[C@@H](NC(=O)[C@H](CC(C)C)NC(=O)[C@H](CC(=O)O)NC(=O)[C@H](CC(C)C)NC(=O)[C@H](CO)NC(=O)[C@@H](NC(=O)[C@@H]1CCCN1C(=O)[C@@H]1CCCN1C(=O)[C@H](CCC(=O)O)NC(=O)[C@H](CCC(N)=O)NC(=O)[C@@H](N)CO)[C@@H](C)CC)[C@@H](C)O)C(C)C)C(=O)N[C@H](C(=O)N[C@@H](CCCCN)C(=O)N[C@@H](C)C(=O)N[C@@H](CC(=O)O)C(=O)N[C@@H](CCC(N)=O)C(=O)N[C@@H](CC(C)C)C(=O)N[C@@H](C)C(=O)N[C@@H](CCC(N)=O)C(=O)N[C@@H](CCC(N)=O)C(=O)N[C@@H](C)C(=O)N[C@@H](Cc1c[nH]cn1)C(=O)N[C@@H](CO)C(=O)N[C@@H](CC(N)=O)C(=O)N[C@@H](CCCNC(=N)N)C(=O)N[C@@H](CCCCN)C(=O)N[C@@H](CC(C)C)C(=O)N[C@@H](CC(C)C)C(=O)N[C@@H](CC(=O)O)C(=O)N[C@H](C(=O)N[C@@H](C)C(N)=O)[C@@H](C)CC)[C@@H](C)O [[D-Phe^12, Nle^21]-oCRF]",very significant lowering of blood pressure,–
"CCCC[C@H](NC(=O)[C@H](CCC(=O)O)NC(=O)[C@H](CC(C)C)NC(=O)[C@@H](NC(=O)[C@H](CCC(=O)O)NC(=O)[C@H](CCCNC(=N)N)NC(=O)[C@H](CC(C)C)NC(=O)[C@H](CC(C)C)NC(=O)[C@H](Cc1c[nH]cn1)NC(=O)[C@@H](Cc1ccccc1)NC(=O)[C@@H](NC(=O)[C@H](CC(C)C)NC(=O)[C@H](CC(=O)O)NC(=O)[C@H](CC(C)C)NC(=O)[C@H](CO)NC(=O)[C@@H](NC(=O)[C@@H]1CCCN1C(=O)[C@@H]1CCCN1C(=O)[C@H](CCC(=O)O)NC(=O)[C@H](CCC(N)=O)NC(=O)[C@@H](N)CO)[C@@H](C)CC)[C@@H](C)O)C(C)C)C(=O)N[C@H](C(=O)N[C@@H](CCCCN)C(=O)N[C@@H](C)C(=O)N[C@@H](CC(=O)O)C(=O)N[C@@H](CCC(N)=O)C(=O)N[C@@H](CC(C)C)C(=O)N[C@@H](C)C(=O)N[C@@H](CCC(N)=O)C(=O)N[C@@H](CCC(N)=O)C(=O)N[C@@H](C)C(=O)N[C@@H](Cc1c[nH]cn1)C(=O)N[C@@H](CO)C(=O)N[C@@H](CC(N)=O)C(=O)N[C@@H](CCCNC(=N)N)C(=O)N[C@@H](CC(C)C)C(=O)N[C@@H](CC(C)C)C(=O)N[C@@H](CC(C)C)C(=O)N[C@@H](CC(=O)O)C(=O)N[C@H](C(=O)N[C@@H](C)C(N)=O)[C@@H](C)CC)[C@@H](C)O [[D-phe^12, Nle^21, Leu^36]-oCRF]",very significant lowering of blood pressure,stimulates the secretion of ACTH and β-END-LI
